In ChEMBL document CHEMBL1130523, “Design and synthesis of the cartilage protective agent (CPA, Ro32-3555)” (Bioorg Med Chem Lett, 1997):

Biological target: Collagenase
Test: Inhibition of human collagenase (MMP1)
Assay type: protein assay

## CNC(=O)[C@H](NC(=O)[C@H](CC(C)C)[C@@H](CN1C(=O)c2ccccc2C1=O)C(=O)NO)C(C)(C)C
  IC50: 0.5 nM
